From ChEMBL document CHEMBL1777757, “Triazoloquinazolines as a novel class of phosphodiesterase 10A (PDE10A) inhibitors” (Bioorg Med Chem Lett, 2011)

By UniProt entry, the sequences of proteins in these tests, tags left out. Where a name states a change or a piece, a line headed by the entry shows the natural chain unless it says otherwise.
UniProt Q9Y233: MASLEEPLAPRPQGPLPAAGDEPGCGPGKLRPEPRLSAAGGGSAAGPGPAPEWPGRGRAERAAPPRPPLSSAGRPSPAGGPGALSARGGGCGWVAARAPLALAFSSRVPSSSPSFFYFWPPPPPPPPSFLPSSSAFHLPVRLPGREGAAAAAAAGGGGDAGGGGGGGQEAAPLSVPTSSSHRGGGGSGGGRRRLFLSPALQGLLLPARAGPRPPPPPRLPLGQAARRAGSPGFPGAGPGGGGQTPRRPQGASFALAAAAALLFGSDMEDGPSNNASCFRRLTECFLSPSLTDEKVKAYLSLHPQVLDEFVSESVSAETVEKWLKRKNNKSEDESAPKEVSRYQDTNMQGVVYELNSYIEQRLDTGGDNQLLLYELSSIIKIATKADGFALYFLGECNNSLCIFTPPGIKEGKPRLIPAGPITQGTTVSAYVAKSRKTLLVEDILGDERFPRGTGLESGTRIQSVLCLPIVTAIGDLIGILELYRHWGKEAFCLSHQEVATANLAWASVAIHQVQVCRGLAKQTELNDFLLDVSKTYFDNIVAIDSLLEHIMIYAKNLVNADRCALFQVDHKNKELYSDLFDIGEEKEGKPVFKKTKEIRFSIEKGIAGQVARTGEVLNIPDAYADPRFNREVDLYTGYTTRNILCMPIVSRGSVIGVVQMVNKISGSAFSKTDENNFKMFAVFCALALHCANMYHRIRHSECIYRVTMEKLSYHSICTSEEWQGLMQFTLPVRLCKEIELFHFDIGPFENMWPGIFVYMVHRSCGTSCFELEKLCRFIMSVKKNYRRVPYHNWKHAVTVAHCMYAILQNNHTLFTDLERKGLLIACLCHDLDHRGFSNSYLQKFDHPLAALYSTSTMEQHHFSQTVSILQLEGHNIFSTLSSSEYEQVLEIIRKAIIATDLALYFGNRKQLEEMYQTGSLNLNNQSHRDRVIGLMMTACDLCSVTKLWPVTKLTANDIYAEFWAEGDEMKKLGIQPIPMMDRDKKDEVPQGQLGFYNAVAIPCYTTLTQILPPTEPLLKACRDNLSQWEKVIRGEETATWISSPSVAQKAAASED

Molecular target: cAMP and cAMP-inhibited cGMP 3',5'-cyclic phosphodiesterase 10A (Homo sapiens, UniProt Q9Y233)
Test: Inhibition of PDE10A

For `COc1ccc(Cc2nccc3cc(OC)c(OC)cc23)cc1OC` [PAPAVERINE], the IC50 was 0.21 µM.
